Patent publication US9034863B2, “Compositions and methods for inhibiting entry of a hepatic virus” (The Board of Trustees of the University of Illinois, priority 2008, dated 2015)

Tested on: HCV
Experiment: Chronic HCV infection treated with IFN-β and ezetimibe, weekly RT-qPCR for 8 weeks
Type: cell-based, Hepatitis C virus (HCV)
Settings: 20 U/ml, week 3 to week 8, vs mock treated
Protocol: Similar studies were carried out with IFN-β alone (20 U/ml), or ezetimibe and IFN-β in combination (a combination of either 15 or 30 μM ezetimibe with 20 U/ml IFN-β). Intracellular RNA was collected from triplicate wells weekly for 8 weeks post-treatment and HCV RNA was quantified by RT-qPCR. […] Importantly, however, a synergistic effect was observed when IFN-β was used in combination with ezetimibe at concentrations of 15 or 30 μM. […] It was confirmed that the inhibition observed was not a consequence of treatment-induced cytotoxicity.

B1: IFN-β: Recombinant human IFN-β, a type I interferon (protein, UniProt P01574 22-187, looked up)
Interferon beta: MSYNLLGFLQRSSNFQCQKLLWQLNGRLEYCLKDRMNFDIPEEIKQLQQFQKEDAALTIYEMLQNIFAIFRQDSSSTGWNETIVENLLANVYHQINHLKTVLEEKLEKEDFTRGKLMSSLHLKRYYGRILHYLKAKEYSHCAWTIVRVEILRNFYFINRLTGYLRN
- reduction of intracellular HCV RNA levels: approximately 100 fold
